The list shows a part of the results, in another mix than the full data. Some salts and complexes are drawn in separate pieces, as the source files them; their charges need not balance. The source made the active and inactive calls. Rule as the data show it: active = growth inhibition above about 70%; inactive = the rest.
What was measured:
[1] = NCI Yeast Anticancer Drug Screen. Data for the rad50 strain (AID 155);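 also: 0% = growth of vehicle-only cultures of the same strain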; settings: S. cerevisiae rad50 strain growth inhibition; at 50.0 µM; stronger effect = higher value
[2] = NCI Yeast Anticancer Drug Screen. Data for the mec2-1 strain (AID 157); settings: S. cerevisiae mec2-1 strain, at 50.0 µM, stronger effect = higher value
[3] = NCI Yeast Anticancer Drug Screen. Data for the sgs1 mgt1 strain (AID 161);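 also: 0% = growth of cultures given vehicle only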; settings: S. cerevisiae sgs1 mgt1 strain, at 50.0 µM, stronger effect = higher value
[4] = NCI Yeast Anticancer Drug Screen. Data for the cln2 rad14 strain (AID 165);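 also: 0% = growth equal to vehicle treated cultures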; settings: S. cerevisiae cln2 rad14 strain, at 50.0 µM, stronger effect = higher value
[5] = NCI Yeast Anticancer Drug Screen. Data for the bub3 strain (AID 167); settings: S. cerevisiae bub3 mutant strain, at 50.0 µM, stronger effect = higher value
[6] = NCI Yeast Anticancer Drug Screen. Data for the mlh1 rad18 strain (AID 175); settings: S. cerevisiae mlh1 rad18 strain growth inhibition; at 50.0 µM; stronger effect = higher value

Measured: growth inhibition

[C-]#N.[C-]#N.[C-]#N.[C-]#N.[C-]#N.[Fe+6].[NH2-]
inactive: [1] 15.4% | [2] -23.1% | [3] 9.35% | [4] 1.85% | [5] 27.6% | [6] 25.6%

CC(C)(N)CO.O=[N+]([O-])c1cc([N+](=O)[O-])c(O)c([N+](=O)[O-])c1
inactive: [1] 8.95% | [2] 0.8% | [3] -0.9% | [4] -23.1% | [5] -3.3% | [6] -3.9%

CCCCC(CCCC)NC(CC)CO.O=[N+]([O-])c1cc([N+](=O)[O-])c(O)c([N+](=O)[O-])c1
inactive: [1] 14.7% | [2] -17.6% | [3] 13.7% | [4] -21.6% | [5] 1.6% | [6] 0.3%

CC(C)C(CN(C)C)C(C)C.O=[N+]([O-])c1cc([N+](=O)[O-])c(O)c([N+](=O)[O-])c1
inactive: [1] 14.6% | [2] 3.7% | [3] 0.4% | [4] 9.2% | [5] -2.1% | [6] 5.4%

NCCc1ccccn1.O=[N+]([O-])c1cc([N+](=O)[O-])c(O)c([N+](=O)[O-])c1
inactive: [1] 8.7% | [2] -8.45% | [3] 10.4% | [4] 4.4% | [5] -12.2% | [6] -6.1%

CC(=O)NCCCCOc1ccc(N)cc1
inactive: [1] -13.2% | [2] 9.35% | [3] -13.7% | [4] 41.9% | [5] 1.75% | [6] -9.6%

O=[N+]([O-])c1ccccc1[N+](=O)[O-]
inactive: [1] 30.1% | [2] 2.4% | [3] 15.9% | [4] 8.45% | [5] -14.3% | [6] 13%

ClCCCc1cccnc1.O=[N+]([O-])c1cc([N+](=O)[O-])c(O)c([N+](=O)[O-])c1
inactive: [1] -40.5% | [2] -2.4% | [3] 18.4% | [4] 22.9% | [5] 2.8% | [6] 9.45%

CC(O)CN.O=[N+]([O-])c1cc([N+](=O)[O-])c(O)c([N+](=O)[O-])c1
inactive: [1] 8.05% | [2] 5.05% | [3] -4.65% | [4] -28.6% | [5] -3.85% | [6] -9.4%

CN(C)CC1CCCC(CN(C)C)C1OC(=O)C(O)(c1ccccc1)c1ccccc1 (stereo not drawn)
inactive: [1] -3.1% | [2] 8.45% | [3] -6.4% | [4] -44.5% | [5] -0.1% | [6] 13.8%

CCCCCCC(C)NCC(C)(C)O.O=[N+]([O-])c1cc([N+](=O)[O-])c(O)c([N+](=O)[O-])c1
inactive: [1] 47.5% | [2] -2.3% | [3] 35% | [4] -14.8% | [5] 3.9% | [6] 18.6%

Cc1cc2ccccc2c2c1ccc1ccccc12.O=C1c2cc([N+](=O)[O-])ccc2-c2c1cc([N+](=O)[O-])cc2[N+](=O)[O-]
inactive: [1] 35.4% | [2] 15.4% | [3] 30.1% | [4] -8.55% | [5] 23.5% | [6] 65.1%

CC(C)N([PH2+]Br)C(C)C.[C-]#[O+].[C-]#[O+].[C-]#[O+].[C-]#[O+].[Fe] (stereo not drawn)
inactive: [1] -4.95% | [2] -1% | [3] -21.9% | [4] -22.2% | [5] -0.65% | [6] -23.8%

O=[N+]([O-])c1cc([N+](=O)[O-])c(O)c([N+](=O)[O-])c1.c1cc(CCCSCCCc2ccncc2)ccn1
inactive: [1] 48.7% | [2] 20.1% | [3] 58.8% | [4] 37.7% | [5] 17.1% | [6] 43.3%

CCOC(=O)C(C)(C)C(OP(=O)(CC)OCC)=C(C)C (stereo not drawn)
inactive: [1] -9.4% | [2] 7.5% | [3] -4.7% | [4] -5.05% | [5] -2.05% | [6] 5.55%

ClCCN[PH+]1OCCCN1CCCl.ClCCN[PH+]1OCCCN1CCCl.[Cl][Pt][Cl] (stereo not drawn)
inactive: [1] 2.4% | [2] 4.7% | [3] -2.6% | [4] -13.1% | [5] -4.6% | [6] 10.3%

CN(CCCl)C1CCCC1
inactive: [1] 8.75% | [2] 0.9% | [3] 4.95% | [4] -12.9% | [5] -0.6% | [6] 11.7%

O=C(CCN1CCCC(O)C1COC(=O)C(O)(c1ccccc1)c1ccccc1)NCc1ccccc1 (stereo not drawn)
inactive: [1] -25.4% | [2] -39.5% | [3] -31.2% | [4] -5.55% | [5] -24.8% | [6] -19.2%

— PubChem BioAssay (NCI)
